This note sets out measurements from US6426359B1 (Pfizer Inc., priority 1996, dated 2002).

Protein sequences, listed by entry. Tags and fused reporters are not part of them. Lines headed by an entry give the natural chain unless they say otherwise; changes in a name come on top.
UniProt P43116: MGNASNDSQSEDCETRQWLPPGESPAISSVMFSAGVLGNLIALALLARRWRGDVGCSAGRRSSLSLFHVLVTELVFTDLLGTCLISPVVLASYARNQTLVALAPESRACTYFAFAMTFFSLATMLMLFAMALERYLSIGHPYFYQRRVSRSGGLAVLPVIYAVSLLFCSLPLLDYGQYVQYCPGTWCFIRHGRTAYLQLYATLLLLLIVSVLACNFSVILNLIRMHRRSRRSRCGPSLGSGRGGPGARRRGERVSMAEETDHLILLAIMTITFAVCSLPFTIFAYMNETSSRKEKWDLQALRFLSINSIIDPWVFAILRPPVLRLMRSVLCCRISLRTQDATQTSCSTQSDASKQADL

The target of this assay is T1, human EP2 receptor (Homo sapiens, UniProt P43116).
T1 construct: cDNAs representing the complete open reading frames of the human EP2 and EP4 receptors; expressed in transfected cells
Description: Scatchard analysis of [3-H]PGE2 binding in 293-S line expressing EP2. Conditions: read-out: Kd for PGE2 (EP2), 293-S/EP2 line selected for compound screening, approximately 338,400 receptors per cell.

In the case of `CCCCC[C@H](O)/C=C/[C@H]1[C@H](O)CC(=O)[C@@H]1C/C=C\CCCC(=O)O` [PGE2, prostaglandin E2], the Kd came out at 12 nM.
